Target: PHD2 (Homo sapiens, UniProt Q9GZT9)
Test: biochemical
Protocol: 3. Biochemical procedures
Protein production and purification
PAGE analysis) according to established procedures.
FIH, PHD2, AspH, JMJD5 and KDM4A inhibition assays
The in vitro FIH,1, 2 PHD2,1 AspH,38 JMJD536 and KDM4A39 inhibition assays were performed as […]
KDM4A). Synthetic peptide substrates were used: HIF-1α C-terminal transactivation domain fragment […]
H3Lys9 bearing three methyl groups at the N ϵ position, H3Lys4 substituted by an Ala and H3Lys14 substituted by an Ile residue) for KDM4A.39 Peptides were prepared as C-terminal amides by GL Biochem (Shanghai) Ltd. Peptide hydroxylation in the case of FIH, PHD2, AspH and JMJD5 (+16 Da mass shift) or peptide demethylation in the case of KDM4A ( -14 Da mass shift) was monitored by SPE-MS. […]

By UniProt entry, the sequences of proteins in these tests, tags left out. Residues count along the entry.
UniProt Q9GZT9, 181-426: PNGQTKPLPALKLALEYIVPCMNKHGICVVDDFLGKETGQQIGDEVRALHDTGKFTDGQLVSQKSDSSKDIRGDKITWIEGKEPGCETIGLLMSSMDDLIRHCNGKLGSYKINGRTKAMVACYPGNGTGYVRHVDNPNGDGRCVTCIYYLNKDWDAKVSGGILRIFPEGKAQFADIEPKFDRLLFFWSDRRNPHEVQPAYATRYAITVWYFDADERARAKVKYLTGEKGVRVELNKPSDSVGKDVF

O=C(O)Cc1cs/c(=N\C(=O)CNC(=O)c2ccccc2)n1O [compound 16]
IC50: 1.2 ± 0.2 µM

From article PMC10631261 (Chemical Science, 2023)
